Reference: PMC12136037, “Type II kinase inhibitors that target Parkinson’s disease–associated LRRK2” (Science Advances, 2025)

By UniProt entry, the sequences of proteins in these tests, tags left out.
UniProt P07332, whole entry: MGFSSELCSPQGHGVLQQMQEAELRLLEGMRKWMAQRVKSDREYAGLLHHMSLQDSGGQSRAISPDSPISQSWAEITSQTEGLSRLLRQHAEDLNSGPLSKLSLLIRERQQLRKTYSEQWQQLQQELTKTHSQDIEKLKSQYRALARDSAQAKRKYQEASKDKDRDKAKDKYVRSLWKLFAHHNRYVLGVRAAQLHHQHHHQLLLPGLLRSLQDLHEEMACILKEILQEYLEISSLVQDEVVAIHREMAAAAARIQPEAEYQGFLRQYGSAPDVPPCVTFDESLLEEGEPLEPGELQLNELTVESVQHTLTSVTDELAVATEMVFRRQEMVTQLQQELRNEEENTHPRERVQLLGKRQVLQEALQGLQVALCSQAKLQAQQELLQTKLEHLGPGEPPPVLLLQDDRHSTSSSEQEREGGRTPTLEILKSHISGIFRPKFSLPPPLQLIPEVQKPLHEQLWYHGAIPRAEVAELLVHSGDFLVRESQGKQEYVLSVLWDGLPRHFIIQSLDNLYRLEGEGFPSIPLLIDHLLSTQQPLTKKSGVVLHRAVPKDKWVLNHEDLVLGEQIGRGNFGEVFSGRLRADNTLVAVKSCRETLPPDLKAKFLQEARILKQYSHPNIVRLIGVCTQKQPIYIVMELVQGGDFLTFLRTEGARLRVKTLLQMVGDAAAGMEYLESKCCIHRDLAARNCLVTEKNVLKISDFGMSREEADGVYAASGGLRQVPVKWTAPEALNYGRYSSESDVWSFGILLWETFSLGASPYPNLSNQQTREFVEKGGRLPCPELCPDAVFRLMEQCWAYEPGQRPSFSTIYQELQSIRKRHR
UniProt Q9UKI8, whole entry: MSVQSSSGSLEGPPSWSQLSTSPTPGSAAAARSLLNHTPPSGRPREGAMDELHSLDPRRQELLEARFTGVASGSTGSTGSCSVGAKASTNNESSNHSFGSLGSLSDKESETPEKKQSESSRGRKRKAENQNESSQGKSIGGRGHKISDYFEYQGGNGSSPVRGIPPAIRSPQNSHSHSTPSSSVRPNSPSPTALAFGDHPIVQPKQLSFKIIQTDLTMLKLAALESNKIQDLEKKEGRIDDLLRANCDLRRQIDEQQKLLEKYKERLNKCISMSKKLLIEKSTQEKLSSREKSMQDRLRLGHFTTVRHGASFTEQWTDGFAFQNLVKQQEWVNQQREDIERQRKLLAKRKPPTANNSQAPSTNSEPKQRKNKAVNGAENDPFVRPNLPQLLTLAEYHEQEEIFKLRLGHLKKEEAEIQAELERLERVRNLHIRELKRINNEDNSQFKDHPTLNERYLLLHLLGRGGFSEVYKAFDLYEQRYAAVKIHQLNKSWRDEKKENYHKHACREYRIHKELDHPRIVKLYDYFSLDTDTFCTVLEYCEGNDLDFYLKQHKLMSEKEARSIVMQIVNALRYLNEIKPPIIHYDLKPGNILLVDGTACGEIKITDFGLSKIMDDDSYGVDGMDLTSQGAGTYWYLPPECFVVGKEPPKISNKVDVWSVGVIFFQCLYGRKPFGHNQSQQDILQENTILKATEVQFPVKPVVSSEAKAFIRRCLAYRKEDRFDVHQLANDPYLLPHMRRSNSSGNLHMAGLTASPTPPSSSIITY
UniProt P51955, whole entry: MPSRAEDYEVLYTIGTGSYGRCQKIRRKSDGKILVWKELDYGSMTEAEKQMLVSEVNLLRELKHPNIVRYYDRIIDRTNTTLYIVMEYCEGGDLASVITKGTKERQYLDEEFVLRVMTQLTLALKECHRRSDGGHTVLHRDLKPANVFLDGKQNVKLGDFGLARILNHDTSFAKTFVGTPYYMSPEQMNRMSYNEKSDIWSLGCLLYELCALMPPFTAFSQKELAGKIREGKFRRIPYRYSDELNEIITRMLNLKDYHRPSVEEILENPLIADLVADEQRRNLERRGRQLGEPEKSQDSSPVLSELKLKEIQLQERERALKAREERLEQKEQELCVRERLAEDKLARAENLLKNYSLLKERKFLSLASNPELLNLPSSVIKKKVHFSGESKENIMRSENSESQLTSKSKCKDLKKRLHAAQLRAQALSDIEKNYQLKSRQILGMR
UniProt P51813, whole entry: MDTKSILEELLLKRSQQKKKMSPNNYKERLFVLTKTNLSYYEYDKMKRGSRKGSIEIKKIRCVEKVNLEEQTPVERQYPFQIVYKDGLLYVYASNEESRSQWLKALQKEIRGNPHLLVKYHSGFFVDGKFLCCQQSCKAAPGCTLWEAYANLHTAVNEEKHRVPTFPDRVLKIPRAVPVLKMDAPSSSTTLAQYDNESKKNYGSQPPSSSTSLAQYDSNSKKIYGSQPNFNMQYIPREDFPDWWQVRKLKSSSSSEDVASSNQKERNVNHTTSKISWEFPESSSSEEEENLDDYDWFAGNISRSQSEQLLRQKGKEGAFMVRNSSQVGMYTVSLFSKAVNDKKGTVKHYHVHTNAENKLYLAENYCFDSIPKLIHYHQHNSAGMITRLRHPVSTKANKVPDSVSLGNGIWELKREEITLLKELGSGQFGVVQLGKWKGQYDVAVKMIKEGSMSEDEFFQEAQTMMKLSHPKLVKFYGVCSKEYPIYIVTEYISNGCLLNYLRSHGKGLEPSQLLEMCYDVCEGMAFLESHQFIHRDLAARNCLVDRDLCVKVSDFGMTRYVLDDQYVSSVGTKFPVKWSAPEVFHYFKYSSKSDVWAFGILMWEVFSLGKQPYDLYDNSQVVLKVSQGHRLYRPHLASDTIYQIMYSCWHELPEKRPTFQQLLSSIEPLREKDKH
UniProt Q5VT25, whole entry: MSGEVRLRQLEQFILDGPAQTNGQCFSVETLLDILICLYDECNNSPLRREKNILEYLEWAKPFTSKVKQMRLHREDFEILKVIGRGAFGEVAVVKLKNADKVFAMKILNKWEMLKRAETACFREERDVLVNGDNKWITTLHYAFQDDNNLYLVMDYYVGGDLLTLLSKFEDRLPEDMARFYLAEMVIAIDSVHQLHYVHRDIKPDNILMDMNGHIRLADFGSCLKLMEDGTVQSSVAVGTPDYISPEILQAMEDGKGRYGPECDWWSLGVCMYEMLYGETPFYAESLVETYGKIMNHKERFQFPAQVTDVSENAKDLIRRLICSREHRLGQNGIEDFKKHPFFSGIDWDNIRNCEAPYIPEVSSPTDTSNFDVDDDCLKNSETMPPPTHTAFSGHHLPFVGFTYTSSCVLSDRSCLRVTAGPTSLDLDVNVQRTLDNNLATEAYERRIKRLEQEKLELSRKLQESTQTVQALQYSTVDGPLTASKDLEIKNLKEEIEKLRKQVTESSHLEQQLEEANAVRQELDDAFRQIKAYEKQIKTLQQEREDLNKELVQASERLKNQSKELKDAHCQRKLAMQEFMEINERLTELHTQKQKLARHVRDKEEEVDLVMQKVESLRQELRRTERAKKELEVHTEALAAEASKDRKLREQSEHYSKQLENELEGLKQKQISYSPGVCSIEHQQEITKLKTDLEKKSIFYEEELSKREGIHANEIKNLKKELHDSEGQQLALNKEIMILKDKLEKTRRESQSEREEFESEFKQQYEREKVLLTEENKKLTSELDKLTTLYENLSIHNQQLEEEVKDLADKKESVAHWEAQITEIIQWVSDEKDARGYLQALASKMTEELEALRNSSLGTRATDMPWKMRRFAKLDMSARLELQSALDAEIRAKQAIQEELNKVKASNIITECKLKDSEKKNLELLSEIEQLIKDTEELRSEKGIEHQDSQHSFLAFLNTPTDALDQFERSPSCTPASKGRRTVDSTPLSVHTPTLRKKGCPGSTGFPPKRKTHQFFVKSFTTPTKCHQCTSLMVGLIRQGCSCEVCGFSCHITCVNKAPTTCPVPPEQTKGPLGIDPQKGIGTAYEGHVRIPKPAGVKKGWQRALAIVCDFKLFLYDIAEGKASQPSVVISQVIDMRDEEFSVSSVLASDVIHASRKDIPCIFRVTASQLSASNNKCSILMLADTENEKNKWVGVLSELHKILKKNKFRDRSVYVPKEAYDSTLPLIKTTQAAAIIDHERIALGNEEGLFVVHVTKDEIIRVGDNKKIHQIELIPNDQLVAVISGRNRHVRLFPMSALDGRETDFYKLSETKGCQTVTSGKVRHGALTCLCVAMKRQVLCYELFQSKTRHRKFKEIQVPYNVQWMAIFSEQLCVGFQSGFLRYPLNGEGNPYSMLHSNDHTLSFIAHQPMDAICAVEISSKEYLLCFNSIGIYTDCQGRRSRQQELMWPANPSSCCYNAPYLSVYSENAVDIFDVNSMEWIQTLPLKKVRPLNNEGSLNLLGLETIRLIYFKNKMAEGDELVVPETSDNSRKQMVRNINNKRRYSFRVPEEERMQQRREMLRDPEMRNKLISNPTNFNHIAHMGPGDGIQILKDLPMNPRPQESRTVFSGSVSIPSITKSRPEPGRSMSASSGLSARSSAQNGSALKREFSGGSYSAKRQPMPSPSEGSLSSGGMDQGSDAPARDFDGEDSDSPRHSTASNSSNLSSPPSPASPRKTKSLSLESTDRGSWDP
UniProt O43293, whole entry: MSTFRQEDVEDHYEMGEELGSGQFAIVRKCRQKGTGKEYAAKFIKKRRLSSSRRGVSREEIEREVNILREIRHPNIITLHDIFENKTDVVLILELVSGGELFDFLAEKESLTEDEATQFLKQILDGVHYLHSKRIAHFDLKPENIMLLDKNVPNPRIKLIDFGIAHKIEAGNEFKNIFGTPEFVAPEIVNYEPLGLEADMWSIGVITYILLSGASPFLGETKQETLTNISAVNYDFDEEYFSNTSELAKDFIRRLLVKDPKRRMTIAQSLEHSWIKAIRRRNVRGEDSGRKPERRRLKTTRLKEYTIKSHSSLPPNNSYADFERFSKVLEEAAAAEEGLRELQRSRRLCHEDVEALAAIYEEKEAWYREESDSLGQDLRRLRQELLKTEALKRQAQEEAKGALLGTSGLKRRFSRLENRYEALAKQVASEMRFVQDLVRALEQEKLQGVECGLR
UniProt Q9P289, whole entry: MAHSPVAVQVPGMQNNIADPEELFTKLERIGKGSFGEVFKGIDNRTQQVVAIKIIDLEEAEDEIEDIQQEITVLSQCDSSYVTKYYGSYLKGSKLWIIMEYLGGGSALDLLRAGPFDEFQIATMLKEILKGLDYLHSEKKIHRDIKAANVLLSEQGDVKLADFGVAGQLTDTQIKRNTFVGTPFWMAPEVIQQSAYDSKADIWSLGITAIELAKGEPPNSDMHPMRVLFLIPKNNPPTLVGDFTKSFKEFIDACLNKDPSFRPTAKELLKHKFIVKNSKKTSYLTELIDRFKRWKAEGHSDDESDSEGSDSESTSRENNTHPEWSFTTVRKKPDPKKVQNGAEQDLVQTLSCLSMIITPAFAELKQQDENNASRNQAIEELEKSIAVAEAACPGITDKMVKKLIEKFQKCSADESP
UniProt P16083, whole entry: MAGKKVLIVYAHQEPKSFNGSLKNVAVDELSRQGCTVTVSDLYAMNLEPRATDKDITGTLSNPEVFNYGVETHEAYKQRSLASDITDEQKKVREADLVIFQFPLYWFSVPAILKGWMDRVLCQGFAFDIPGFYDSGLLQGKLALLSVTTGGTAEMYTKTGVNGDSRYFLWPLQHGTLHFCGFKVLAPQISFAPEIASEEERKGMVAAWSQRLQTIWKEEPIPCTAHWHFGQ
UniProt O75385, whole entry: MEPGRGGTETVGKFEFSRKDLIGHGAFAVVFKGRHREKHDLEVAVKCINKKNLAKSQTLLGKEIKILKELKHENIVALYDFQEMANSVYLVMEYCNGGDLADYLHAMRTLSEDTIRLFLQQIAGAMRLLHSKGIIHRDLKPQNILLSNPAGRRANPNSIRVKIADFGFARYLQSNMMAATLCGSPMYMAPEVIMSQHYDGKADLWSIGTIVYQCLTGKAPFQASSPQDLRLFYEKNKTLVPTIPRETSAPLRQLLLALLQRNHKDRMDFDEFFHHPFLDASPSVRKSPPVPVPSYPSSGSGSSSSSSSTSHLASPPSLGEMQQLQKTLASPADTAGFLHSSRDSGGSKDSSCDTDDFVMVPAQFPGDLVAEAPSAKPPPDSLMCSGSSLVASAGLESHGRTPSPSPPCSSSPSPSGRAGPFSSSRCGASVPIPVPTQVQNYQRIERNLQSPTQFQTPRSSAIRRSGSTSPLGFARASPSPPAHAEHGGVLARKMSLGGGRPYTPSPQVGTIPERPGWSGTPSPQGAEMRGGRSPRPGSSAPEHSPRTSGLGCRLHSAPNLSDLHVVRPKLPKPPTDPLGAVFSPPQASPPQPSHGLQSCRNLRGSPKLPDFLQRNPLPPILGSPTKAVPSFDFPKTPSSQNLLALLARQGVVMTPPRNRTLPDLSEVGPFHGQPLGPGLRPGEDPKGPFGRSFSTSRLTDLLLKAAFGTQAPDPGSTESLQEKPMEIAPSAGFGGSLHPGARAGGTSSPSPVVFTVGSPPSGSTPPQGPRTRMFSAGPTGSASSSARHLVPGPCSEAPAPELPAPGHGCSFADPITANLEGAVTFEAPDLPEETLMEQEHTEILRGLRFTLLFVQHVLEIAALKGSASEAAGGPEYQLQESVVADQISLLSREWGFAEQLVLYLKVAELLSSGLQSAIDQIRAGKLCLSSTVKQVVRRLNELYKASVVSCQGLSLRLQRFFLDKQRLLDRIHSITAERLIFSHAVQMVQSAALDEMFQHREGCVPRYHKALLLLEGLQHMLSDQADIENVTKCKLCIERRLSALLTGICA

How the values were obtained:
Assay in all cases: DSF 100 kinase selectivity screen;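 also: compound tested at 20 µM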
Type in all cases: binding
[1] = molecular target: ~100 representative kinases (Homo sapiens, UniProt P54756); conditions: Protein EPHA5; average of three replicates
[2] = molecular target: ~100 representative kinases (Homo sapiens, UniProt O95747); conditions: protein OSR1; average of three replicates
[3] = molecular target: ~100 representative kinases (Homo sapiens, UniProt O14976); conditions: protein GAK; average of three replicates
[4] = molecular target: ~100 representative kinases (Homo sapiens, UniProt Q12866); conditions: protein MERTK; average of three replicates
[5] = molecular target: ~100 representative kinases (Homo sapiens, UniProt P07332); conditions: protein FESA; average of three replicates
[6] = molecular target: ~100 representative kinases (Homo sapiens, UniProt Q2M2I8); conditions: Protein AAK1; average of three replicates
[7] = molecular target: ~100 representative kinases (Homo sapiens, UniProt Q13557); conditions: Protein CAMK2D; average of three replicates
[8] = molecular target: ~100 representative kinases (Homo sapiens, UniProt P11362); conditions: protein FGFR1; average of three replicates
[9] = molecular target: ~100 representative kinases (Homo sapiens, UniProt Q13873); conditions: Protein BMPR2; average of three replicates
[10] = molecular target: ~100 representative kinases (Homo sapiens, UniProt Q99986); conditions: Protein VRK1; DSF; average of three replicates
[11] = molecular target: ~100 representative kinases (Homo sapiens, UniProt Q9UKI8); conditions: Protein TLK1; DSF; average of three replicates
[12] = molecular target: ~100 representative kinases (Homo sapiens, UniProt P51955); conditions: protein NEK2; average of three replicates
[13] = molecular target: ~100 representative kinases (Homo sapiens, UniProt O14733); conditions: protein MAP2K7; average of three replicates
[14] = molecular target: ~100 representative kinases (Homo sapiens, UniProt P51813); conditions: Protein BMX; average of three replicates
[15] = molecular target: ~100 representative kinases (Homo sapiens, UniProt P11309); conditions: protein PIM1; average of three replicates
[16] = molecular target: ~100 representative kinases (Homo sapiens, UniProt Q5VT25); conditions: Protein CDC42BPA; average of three replicates
[17] = molecular target: ~100 representative kinases (Homo sapiens, UniProt O43293); conditions: Protein DAPK3; average of three replicates
[18] = molecular target: ~100 representative kinases (Homo sapiens, UniProt P27448); conditions: protein MARK3; average of three replicates
[19] = molecular target: ~100 representative kinases (Homo sapiens, UniProt Q9P289); conditions: protein MST4; average of three replicates
[20] = molecular target: ~100 representative kinases (Homo sapiens, UniProt Q14680); conditions: protein MELK; average of three replicates
[21] = molecular target: ~100 representative kinases (Homo sapiens, UniProt P21675); conditions: Protein TAF1; DSF; average of three replicates
[22] = molecular target: ~100 representative kinases (Homo sapiens, UniProt P24941); conditions: Protein CDK2; average of three replicates
[23] = molecular target: ~100 representative kinases (Homo sapiens, UniProt O15264); conditions: protein MAPK13; average of three replicates
[24] = molecular target: ~100 representative kinases (Homo sapiens, UniProt O15075); conditions: Protein DCAMKL1; average of three replicates
[25] = molecular target: ~100 representative kinases (Homo sapiens, UniProt Q00536); conditions: protein PCTK1; average of three replicates
[26] = molecular target: ~100 representative kinases (Homo sapiens, UniProt Q99683); conditions: protein MAP3K5; average of three replicates
[27] = molecular target: ~100 representative kinases (Homo sapiens, UniProt Q86V86); conditions: protein PIM3; average of three replicates
[28] = molecular target: ~100 representative kinases (Homo sapiens, UniProt P16083); conditions: protein NQO2; average of three replicates
[29] = molecular target: ~100 representative kinases (Homo sapiens, UniProt Q9UPE1); conditions: Protein SRPK3; DSF; average of three replicates
[30] = molecular target: ~100 representative kinases (Homo sapiens, UniProt P53779); conditions: protein MAPK10; average of three replicates
[31] = molecular target: ~100 representative kinases (Homo sapiens, UniProt P49137); conditions: protein MAPKAPK2; average of three replicates
[32] = molecular target: ~100 representative kinases (Homo sapiens, UniProt O75385); conditions: Protein ULK1; DSF; average of three replicates

In the case of `Cc1ccc(C(=O)Nc2ccc(CN3CCN(C)CC3)c(C(F)(F)F)c2)cc1C#Cc1ccc2cn[nH]c2c1`, the dTm [1] was 9.20 K, the dTm [2] was 2.19 K and the dTm [3] was 3.16 K. For the same compound, the dTm [4] was 0.53 K, the dTm [5] was -4.59 K and the dTm [6] was 0.99 K. The dTm [7] was 0.22 K, the dTm [8] was 5.88 K and the dTm [9] was 4.10 K. It also gave a dTm [10] of -0.86 K, a dTm [11] of -4.46 K and a dTm [12] of -1.48 K. For the same compound, the dTm [13] was 2.80 K, the dTm [14] was 0.37 K and the dTm [15] was -3.55 K. It also gave a dTm [16] of -0.16 K, a dTm [17] of -1.05 K and a dTm [18] of -1.47 K. It also gave a dTm [19] of -5.25 K, a dTm [20] of 8.82 K and a dTm [21] of -12.38 K. The dTm [22] was -0.16 K, the dTm [23] was 5.31 K and the dTm [24] was 2.09 K. It also gave a dTm [25] of 4.19 K, a dTm [26] of 1.15 K and a dTm [27] of -4.28 K. The dTm [28] was 0.94 K, the dTm [29] was 7.84 K and the dTm [30] was -1.46 K. It also gave a dTm [31] of -0.91 K and a dTm [32] of 10.75 K.
